Earlier results on 3 compounds are cited in patent publication US20260382598A1, “COMBINATION TREATMENT TO PREVENT OR MINIMIZE CHEMOTHERAPY-INDUCED PERIPHERAL NEUROPATHY” (published 2026).

Where only a bound is given, the exact number is not on record here.

Series [1] concerns PRK2, RSK1, p70S6K and ROCK-II. Particulars: cited from earlier work.
In series [2] the test system is mitogen- and stress-activated kinase 1 (MSK1). The settings on record: read-out: IC50 for MSK1; cited from earlier work.
For the next series, the system named is p38 MAPK. The settings on record: read-out: IC50 for p38 MAPK; isoform not stated; cited from earlier work.
The next series concerns TGFBR-2. Particulars: cited from earlier work.
The subject of the next series is p38γ. The settings on record: p38α versus p38γ; cited from earlier work.
Another series deals with p38δ. Particulars: p38α versus p38δ; cited from earlier work.
The subject of another series is p38β. Particulars: read-out: Ki for p38β; cited from earlier work.
Another series deals with p38α. The settings on record: read-out: Ki for p38α; cited from earlier work.
For another series, the system named is TNFα. The settings on record: read-out: IC50, whole blood LPS stimulated TNFα; cited from earlier work.

By IC50 is commonly meant the concentration that inhibits the measured activity by half. As for `CCn1c(-c2nonc2N)nc2cncc(CNC3CCNCC3)c21`, the “inhibition of PRK2, RSK1, p70S6K and ROCK-II” value in series [1] was “inhibits PRK2, RSK1, p70S6K and ROCK-II”. The IC50 in series [2] was 0.011 µM.

Consider `Fc1ccc(-c2nc(-c3ccccc3F)[nH]c2-c2ccncc2)cc1`, for which the IC50 in the series on p38 MAPK was 0.02 µM. The “inhibition of TGFBR-2” value in the series with TGFBR-2 is listed as “especially inhibits TGFBR-2”.

By Ki is commonly meant the dissociation constant of the complex between target and ligand, obtained from inhibition or displacement. Take `Cn1c(NC[C@@H](N)Cc2ccccc2)nc(-c2ccncc2)c(-c2ccc3ccccc3c2)c1=O`: in the series on p38γ, the “selectivity against p38γ” value was greater than 1000 fold. In addition, the “selectivity against p38δ” value in the series on p38δ was greater than 1000 fold. For the same compound, the Ki was 0.036 µM with p38β and 0.0005 µM with p38α. For the same compound, the IC50 with TNFα is 0.003 µM.
